Measurements reported in PMC8190026, “Substitution of histidine 30 by asparagine in manganese superoxide dismutase alters biophysical properties and supports proliferation in a K562 leukemia cell line” (2021).

Amino acid sequences for entries named in this document (tags omitted). Residues count along the entry.
UniProt P41977, 25-218 limits assumed: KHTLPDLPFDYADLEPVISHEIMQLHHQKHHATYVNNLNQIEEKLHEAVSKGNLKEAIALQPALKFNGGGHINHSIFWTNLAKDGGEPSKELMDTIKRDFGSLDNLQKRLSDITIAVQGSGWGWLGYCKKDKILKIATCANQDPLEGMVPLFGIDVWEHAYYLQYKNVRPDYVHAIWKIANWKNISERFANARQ

Target: MnSOD-3WT (C. elegans MnSOD-3, manganese superoxide dismutase) (Caenorhabditis elegans, UniProt P41977)
Experiment: […] GHz HFEPR and visible absorption spectroscopy
Settings: substrate analog binding at active-site Mn; 50 mM azide for HFEPR (Mn(II), partial binding), 100 mM azide for absorption (Mn(III), 10 mM Tris.Cl pH 8.0)

[N-]=[N+]=N
285 GHz HFEPR and visible absorption spectroscopy: azide binding to MnSOD was only partial resulting in a mixture of azide-free penta-coordinated centers
